Assay results as given in patent publication US11717499B2 (priority 2011, dated 2023).
Read-outs that look alike come from different tables or passages of the source.

Tested on: LPS-triggered PTB
Conditions: for Percent mice delivered: 50 mg/kg LPS, control 89%; for Average time of delivery: among mice that delivered, control 14.3 hours; for Percent pups lost to spontaneous preterm delivery: control 43.5%
Description: Mice were then randomly assigned to the control group or one of five treatment groups. […] Additionally, a sixth group of four animals received i.p. injections of 0.5 ml PBS in lieu of LPS at the same time points and served as sham (Table 1).
After the injection at t=10 hours, mice were continually monitored; time of delivery of the first pup and number of pups dropped over time were recorded. […] All mice were sacrificed by carbon dioxide asphyxiation. The mice were autopsied at the end of experiments to confirm pregnancy and to determine the number of pups retained in utero. Placenta and uteri were harvested and stored.

CC(=O)N(C)C [DMA, N,N-dimethylacetamide]
Number of mice that delivered (DMA 0.2 mg/kg i.p. at t=-0.5 and 10 h, 50 mg/kg LPS on E15.5, 7 mice, to t=24 h): 5
Percent mice delivered (DMA 0.2 mg/kg): 71.43%
Average time of delivery (DMA 0.2 mg/kg): 16.1 h
Percent pups lost to spontaneous preterm delivery (DMA 0.2 mg/kg): 25.5%
Percent mice delivered (DMA 0.39 mg/kg): 37.5%
Average time of delivery (DMA 0.39 mg/kg): 20.1 h
Percent pups lost to spontaneous preterm delivery (DMA 0.39 mg/kg): 10.9%
Percent mice delivered (DMA 0.78 mg/kg): 20%
Average time of delivery (DMA 0.78 mg/kg): 19.4 h
Percent pups lost to spontaneous preterm delivery (DMA 0.78 mg/kg): 5.5%
